Test results published in US11779548B2, “Arylfluorosulfate compounds and methods” (THE SCRIPPS RESEARCH INSTITUTE, priority 2014, dated 2023).

Experiment: in vivo
Details: female, C57BL/6, mouse, 8.3 mg/kg, female C57BL/6 mice, plasma

C[C@]12CC[C@@H]3c4ccc(OS(=O)(=O)F)cc4C[C@@H](CCCCCCCCC[S+]([O-])CCCC(F)(F)C(F)(F)F)[C@H]3[C@@H]1CC[C@@H]2O (stereo partly drawn) [11F, (7R,8R,9S,13S,14S,17S)-17-Hydroxy-13-methyl-7-(9-((4,4,5,5,5-pentafluoropentyl)sulfinyl)nonyl)-7,8,9,11,12,13,14,15,16,17-decahydro-6H-cyclopenta[a]phenanthren-3-yl sulfurofluoridate]
half-life (po, T1/2, P.O. 8.3 mg/kg): ~4 h
half-life (sc, T1/2, S.C. 8.3 mg/kg): 9.51 h
